Test results as given in patent US20140148400A1, “CARBONIC ANHYDRASE INHIBITORS WITH […] ACTIVITY” (METASIGNAL THERAPEUTICS INC., priority 2010, published 2014).

Sequences of proteins named here, by UniProt entry; tags and fusion partners are left off. A change or cut given only in a name is not applied to a line headed by its entry.
UniProt P00915: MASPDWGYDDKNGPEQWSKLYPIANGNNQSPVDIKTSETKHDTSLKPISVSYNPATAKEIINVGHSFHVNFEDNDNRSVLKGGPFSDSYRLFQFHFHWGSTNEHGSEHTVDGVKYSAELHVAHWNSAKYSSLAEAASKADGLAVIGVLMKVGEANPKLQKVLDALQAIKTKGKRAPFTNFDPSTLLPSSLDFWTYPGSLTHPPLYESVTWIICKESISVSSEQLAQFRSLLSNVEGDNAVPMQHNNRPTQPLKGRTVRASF

Biological target: hCA I (Homo sapiens, UniProt P00915)
Assay: In vitro CA inhibition assay, hCA I
Format: biochemical
Conditions: unit from table title

SMILES: Cc1cc(=O)oc2cc(OC3OCC(O)C(O)C3O)ccc12 [MST-201, 4-methylumbellifer-7-yl- -D-xylopyranoside]
- Ki: 3.4 µM

SMILES: Cc1cc(=O)oc2cc(O[C@@H]3OC[C@@H](O)C(O)C3O)ccc12 (stereo partly drawn) [MST-207, 4-methylumbellifer-7-yl- -D-ribopyranoside]
- Ki: > 100 µM
